{"source": "PubChem BioAssay (NCI)", "assay_in_all_cases": "NCI-60 cell line screen, 48 h", "key": {"K-562 leukemia": {"system": "K-562 leukemia"}, "CAKI-1 renal": {"system": "CAKI-1 renal"}, "HOP-62 NSCLC": {"system": "HOP-62 NSCLC"}, "PC-3 prostate": {"system": "PC-3 prostate"}, "CCRF-CEM leukemia": {"system": "CCRF-CEM leukemia"}, "HCC-2998 colon": {"system": "HCC-2998 colon"}, "SNB-19 CNS": {"system": "SNB-19 CNS"}, "UACC-257 melanoma": {"system": "UACC-257 melanoma"}, "HT29 colon": {"system": "HT29 colon"}, "MDA-MB-231 breast": {"system": "MDA-MB-231 breast"}, "DU-145 prostate": {"system": "DU-145 prostate"}, "OVCAR-3 ovarian": {"system": "OVCAR-3 ovarian"}, "NCI-H522 lung": {"system": "NCI-H522 lung"}, "SK-MEL-2 melanoma": {"system": "SK-MEL-2 melanoma"}, "HCT-116 colon": {"system": "HCT-116 colon"}, "A498 renal": {"system": "A498 renal"}, "SW-620 colon": {"system": "SW-620 colon"}, "MALME-3M melanoma": {"system": "MALME-3M melanoma"}, "NCI-H460 lung": {"system": "NCI-H460 lung"}, "SF-268 CNS": {"system": "SF-268 CNS"}, "NCI-H226 lung": {"system": "NCI-H226 lung"}, "MDA-N": {"system": "MDA-N"}, "RPMI-8226 leukemia": {"system": "RPMI-8226 leukemia"}, "UACC-62 melanoma": {"system": "UACC-62 melanoma"}, "SK-MEL-5 melanoma": {"system": "SK-MEL-5 melanoma"}, "HL-60(TB) leukemia": {"system": "HL-60(TB) leukemia"}, "MDA-MB-435": {"system": "MDA-MB-435"}, "SK-MEL-28 melanoma": {"system": "SK-MEL-28 melanoma"}, "MOLT-4 leukemia": {"system": "MOLT-4 leukemia"}, "ACHN renal": {"system": "ACHN renal"}, "OVCAR-4 ovarian": {"system": "OVCAR-4 ovarian"}, "SNB-75 CNS": {"system": "SNB-75 CNS"}, "SR leukemia": {"system": "SR leukemia"}, "U251 CNS": {"system": "U251 CNS"}, "LOX IMVI melanoma": {"system": "LOX IMVI melanoma"}, "A549 NSCLC": {"system": "A549 NSCLC"}, "BT-549 breast": {"system": "BT-549 breast"}, "NCI-H23 lung": {"system": "NCI-H23 lung"}, "OVCAR-8 ovarian": {"system": "OVCAR-8 ovarian"}, "OVCAR-5 ovarian": {"system": "OVCAR-5 ovarian"}, "HCT-15 colon": {"system": "HCT-15 colon"}, "SN12C renal": {"system": "SN12C renal"}, "TK-10 renal": {"system": "TK-10 renal"}, "MCF7 breast": {"system": "MCF7 breast"}, "T-47D breast": {"system": "T-47D breast"}, "IGROV1 ovarian": {"system": "IGROV1 ovarian"}, "M14 melanoma": {"system": "M14 melanoma"}, "UO-31 renal": {"system": "UO-31 renal"}, "786-0 renal": {"system": "786-0 renal"}}, "note": "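Interpolation was linear, between the two tested concentrations surrounding the appropriate level; five concentrations were tested over 48 hours in 96-well plates. Abbreviation: GI50, concentration required for 50% inhibition of growth. TGI marks complete inhibition of growth.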", "data": [{"smiles": "O=C(N=Nc1ccc([N+](=O)[O-])cc1[N+](=O)[O-])NNc1ccc([N+](=O)[O-])cc1[N+](=O)[O-]", "values": [{"measurement": "GI50", "setting": "K-562 leukemia", "value": 2.8, "unit": "µM"}, {"measurement": "TGI", "setting": "K-562 leukemia", "value": "> 100", "unit": "µM"}, {"measurement": "GI50", "setting": "CAKI-1 renal", "value": 3.8, "unit": "µM"}, {"measurement": "TGI", "setting": "CAKI-1 renal", "value": "> 100", "unit": "µM"}, {"measurement": "GI50", "setting": "HOP-62 NSCLC", "value": 5.32, "unit": "µM"}, {"measurement": "TGI", "setting": "HOP-62 NSCLC", "value": 17, "unit": "µM"}, {"measurement": "GI50", "setting": "PC-3 prostate", "value": 2.6, "unit": "µM"}, {"measurement": "TGI", "setting": "PC-3 prostate", "value": 8.41, "unit": "µM"}, {"measurement": "GI50", "setting": "CCRF-CEM leukemia", "value": 2.92, "unit": "µM"}, {"measurement": "TGI", "setting": "CCRF-CEM leukemia", "value": 15.4, "unit": "µM"}, {"measurement": "GI50", "setting": "HCC-2998 colon", "value": 2.72, "unit": "µM"}, {"measurement": "TGI", "setting": "HCC-2998 colon", "value": 10.1, "unit": "µM"}, {"measurement": "GI50", "setting": "SNB-19 CNS", "value": 4.58, "unit": "µM"}, {"measurement": "TGI", "setting": "SNB-19 CNS", "value": "> 100", "unit": "µM"}, {"measurement": "GI50", "setting": "UACC-257 melanoma", "value": 2.12, "unit": "µM"}, {"measurement": "TGI", "setting": "UACC-257 melanoma", "value": 9.87, "unit": "µM"}, {"measurement": "GI50", "setting": "HT29 colon", "value": 2.81, "unit": "µM"}, {"measurement": "TGI", "setting": "HT29 colon", "value": "> 100", "unit": "µM"}, {"measurement": "GI50", "setting": "MDA-MB-231 breast", "value": 3.52, "unit": "µM"}, {"measurement": "TGI", "setting": "MDA-MB-231 breast", "value": 40.8, "unit": "µM"}, {"measurement": "GI50", "setting": "DU-145 prostate", "value": 5.53, "unit": "µM"}, {"measurement": "TGI", "setting": "DU-145 prostate", "value": 31, "unit": "µM"}, {"measurement": "GI50", "setting": "OVCAR-3 ovarian", "value": 2.61, "unit": "µM"}, {"measurement": "TGI", "setting": "OVCAR-3 ovarian", "value": 5.96, "unit": "µM"}, {"measurement": "GI50", "setting": "NCI-H522 lung", "value": 2.07, "unit": "µM"}, {"measurement": "TGI", "setting": "NCI-H522 lung", "value": 5.73, "unit": "µM"}, {"measurement": "GI50", "setting": "SK-MEL-2 melanoma", "value": 1.97, "unit": "µM"}, {"measurement": "TGI", "setting": "SK-MEL-2 melanoma", "value": 7.4, "unit": "µM"}, {"measurement": "GI50", "setting": "HCT-116 colon", "value": 2.57, "unit": "µM"}, {"measurement": "TGI", "setting": "HCT-116 colon", "value": 11, "unit": "µM"}, {"measurement": "GI50", "setting": "A498 renal", "value": 2.51, "unit": "µM"}, {"measurement": "TGI", "setting": "A498 renal", "value": 7.18, "unit": "µM"}, {"measurement": "GI50", "setting": "SW-620 colon", "value": 4.01, "unit": "µM"}, {"measurement": "TGI", "setting": "SW-620 colon", "value": 24, "unit": "µM"}, {"measurement": "GI50", "setting": "MALME-3M melanoma", "value": 2.05, "unit": "µM"}, {"measurement": "TGI", "setting": "MALME-3M melanoma", "value": 7.55, "unit": "µM"}, {"measurement": "GI50", "setting": "NCI-H460 lung", "value": 3.31, "unit": "µM"}, {"measurement": "TGI", "setting": "NCI-H460 lung", "value": 19.3, "unit": "µM"}, {"measurement": "GI50", "setting": "SF-268 CNS", "value": 10.4, "unit": "µM"}, {"measurement": "TGI", "setting": "SF-268 CNS", "value": 72.9, "unit": "µM"}, {"measurement": "GI50", "setting": "NCI-H226 lung", "value": 3.12, "unit": "µM"}, {"measurement": "TGI", "setting": "NCI-H226 lung", "value": 16.5, "unit": "µM"}, {"measurement": "GI50", "setting": "MDA-N", "value": 7.21, "unit": "µM"}, {"measurement": "TGI", "setting": "MDA-N", "value": 43.5, "unit": "µM"}, {"measurement": "GI50", "setting": "RPMI-8226 leukemia", "value": 2.63, "unit": "µM"}, {"measurement": "TGI", "setting": "RPMI-8226 leukemia", "value": 9.32, "unit": "µM"}, {"measurement": "GI50", "setting": "UACC-62 melanoma", "value": 4.76, "unit": "µM"}, {"measurement": "TGI", "setting": "UACC-62 melanoma", "value": 19.2, "unit": "µM"}, {"measurement": "GI50", "setting": "SK-MEL-5 melanoma", "value": 5.05, "unit": "µM"}, {"measurement": "TGI", "setting": "SK-MEL-5 melanoma", "value": 17.9, "unit": "µM"}, {"measurement": "GI50", "setting": "HL-60(TB) leukemia", "value": 2.4, "unit": "µM"}, {"measurement": "TGI", "setting": "HL-60(TB) leukemia", "value": 7.46, "unit": "µM"}, {"measurement": "GI50", "setting": "MDA-MB-435", "value": 6.7, "unit": "µM"}, {"measurement": "TGI", "setting": "MDA-MB-435", "value": 40.8, "unit": "µM"}, {"measurement": "GI50", "setting": "SK-MEL-28 melanoma", "value": 3.94, "unit": "µM"}, {"measurement": "TGI", "setting": "SK-MEL-28 melanoma", "value": 21.3, "unit": "µM"}, {"measurement": "GI50", "setting": "MOLT-4 leukemia", "value": 2.95, "unit": "µM"}, {"measurement": "TGI", "setting": "MOLT-4 leukemia", "value": 15.7, "unit": "µM"}, {"measurement": "GI50", "setting": "ACHN renal", "value": 3.2, "unit": "µM"}, {"measurement": "TGI", "setting": "ACHN renal", "value": 15.9, "unit": "µM"}, {"measurement": "GI50", "setting": "OVCAR-4 ovarian", "value": 2.38, "unit": "µM"}, {"measurement": "TGI", "setting": "OVCAR-4 ovarian", "value": 15.3, "unit": "µM"}, {"measurement": "GI50", "setting": "SNB-75 CNS", "value": 12.8, "unit": "µM"}, {"measurement": "TGI", "setting": "SNB-75 CNS", "value": "> 100", "unit": "µM"}, {"measurement": "GI50", "setting": "SR leukemia", "value": 3.57, "unit": "µM"}, {"measurement": "TGI", "setting": "SR leukemia", "value": "> 100", "unit": "µM"}, {"measurement": "GI50", "setting": "U251 CNS", "value": 2.98, "unit": "µM"}, {"measurement": "TGI", "setting": "U251 CNS", "value": 21.6, "unit": "µM"}, {"measurement": "GI50", "setting": "LOX IMVI melanoma", "value": 3.57, "unit": "µM"}, {"measurement": "TGI", "setting": "LOX IMVI melanoma", "value": 12.5, "unit": "µM"}, {"measurement": "GI50", "setting": "A549 NSCLC", "value": 3.94, "unit": "µM"}, {"measurement": "TGI", "setting": "A549 NSCLC", "value": 21.4, "unit": "µM"}, {"measurement": "GI50", "setting": "BT-549 breast", "value": 2.34, "unit": "µM"}, {"measurement": "TGI", "setting": "BT-549 breast", "value": 70.9, "unit": "µM"}, {"measurement": "GI50", "setting": "NCI-H23 lung", "value": 2.41, "unit": "µM"}, {"measurement": "TGI", "setting": "NCI-H23 lung", "value": 11.4, "unit": "µM"}, {"measurement": "GI50", "setting": "OVCAR-8 ovarian", "value": 3.25, "unit": "µM"}, {"measurement": "TGI", "setting": "OVCAR-8 ovarian", "value": 13.3, "unit": "µM"}, {"measurement": "GI50", "setting": "OVCAR-5 ovarian", "value": 7.86, "unit": "µM"}, {"measurement": "TGI", "setting": "OVCAR-5 ovarian", "value": 53.7, "unit": "µM"}, {"measurement": "GI50", "setting": "HCT-15 colon", "value": 4.89, "unit": "µM"}, {"measurement": "TGI", "setting": "HCT-15 colon", "value": 62.9, "unit": "µM"}, {"measurement": "GI50", "setting": "SN12C renal", "value": 3.65, "unit": "µM"}, {"measurement": "TGI", "setting": "SN12C renal", "value": 25.1, "unit": "µM"}, {"measurement": "GI50", "setting": "TK-10 renal", "value": 8.06, "unit": "µM"}, {"measurement": "TGI", "setting": "TK-10 renal", "value": 55.6, "unit": "µM"}, {"measurement": "GI50", "setting": "MCF7 breast", "value": 1.4, "unit": "µM"}, {"measurement": "TGI", "setting": "MCF7 breast", "value": 4.09, "unit": "µM"}, {"measurement": "GI50", "setting": "T-47D breast", "value": 2.31, "unit": "µM"}, {"measurement": "TGI", "setting": "T-47D breast", "value": 17.6, "unit": "µM"}, {"measurement": "GI50", "setting": "IGROV1 ovarian", "value": 7.08, "unit": "µM"}, {"measurement": "TGI", "setting": "IGROV1 ovarian", "value": 34.5, "unit": "µM"}, {"measurement": "GI50", "setting": "M14 melanoma", "value": 3.99, "unit": "µM"}, {"measurement": "TGI", "setting": "M14 melanoma", "value": 19, "unit": "µM"}, {"measurement": "GI50", "setting": "UO-31 renal", "value": 2.44, "unit": "µM"}, {"measurement": "TGI", "setting": "UO-31 renal", "value": 9.12, "unit": "µM"}, {"measurement": "GI50", "setting": "786-0 renal", "value": 2.83, "unit": "µM"}, {"measurement": "TGI", "setting": "786-0 renal", "value": 10.6, "unit": "µM"}]}]}
